pIC50: −log10 of the molar value.
Experiments:
MMP 1 = target: T1, MMP 1 (Homo sapiens, UniProt P03956); assay: In Vitro Collagenase Assay; type: biochemical; conditions: human recombinant fibroblast collagenase; read-out: MMP 1 IC 50
T1 construct: human recombinant fibroblast collagenase (truncated, mw= 18,828, WAR, Radnor)
T1 sequence (P03956 100-269 limits assumed): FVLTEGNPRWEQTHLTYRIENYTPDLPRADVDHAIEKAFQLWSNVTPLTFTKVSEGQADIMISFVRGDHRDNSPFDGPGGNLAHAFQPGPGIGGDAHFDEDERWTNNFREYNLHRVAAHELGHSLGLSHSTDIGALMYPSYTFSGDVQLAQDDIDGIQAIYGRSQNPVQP

MMP 13 = MMP 13 (Homo sapiens, UniProt P45452); assay: MMP 13 inhibition (IC50 / manual assay; method not described); type: biochemical; conditions: read-out: MMP 13 IC 50

pIC50 (MMP 13) | Compound | pIC50 (MMP 1)
 | CCCCOc1ccc(S(=O)(=O)C2(C(=O)NO)CCN(Cc3ccc(OC)cc3)CC2)cc1 [Example 104, 4-(4-n-Butoxy-benzenesulfonyl)-1-(4-methoxy-benzyl)-piperidine-4-carboxylic acid hydroxyamide] | 5.58
6.90 | CCCCC(Cc1cccnc1)(C(=O)NO)S(=O)(=O)c1ccc(OC)cc1 (stereo not drawn) [Example 70, 2-(4-Methoxy-benzenesulfonyl)-2-pyridin-3-ylmethyl-hexanoic acid hydroxyamide] | 
 | COc1ccc(S(=O)(=O)C(Cc2ccc3ccccc3c2)C(=O)NO)cc1 (stereo not drawn) [Example 40, N-Hydroxy-2-(4-methoxy-benzenesulfonyl)-3-naphthalen-2-yl-propionamide] | 6.23
